Biological target: C-X-C chemokine receptor type 4 (Homo sapiens, UniProt P61073)
Experiment: Displacement of [125I]-SDF-1alpha from CXCR4 receptor expressed in HEK293 cells after 1 hr by scintillation counting
Assay type: cell-based

The chains behind the UniProt entries cited, without tags or fusion partners.
UniProt P61073, whole entry: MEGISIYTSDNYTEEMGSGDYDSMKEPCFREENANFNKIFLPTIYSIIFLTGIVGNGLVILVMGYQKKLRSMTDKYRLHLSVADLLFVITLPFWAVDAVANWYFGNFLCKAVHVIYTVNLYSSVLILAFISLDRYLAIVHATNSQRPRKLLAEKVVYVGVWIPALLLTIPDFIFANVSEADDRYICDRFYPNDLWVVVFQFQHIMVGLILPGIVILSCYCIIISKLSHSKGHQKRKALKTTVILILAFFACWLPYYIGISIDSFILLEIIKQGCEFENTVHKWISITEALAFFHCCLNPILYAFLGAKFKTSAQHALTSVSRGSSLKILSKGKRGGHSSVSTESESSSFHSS

With `N=C(N)NCCC[C@@H]1NC(=O)[C@H](CCCNC(=N)N)NC(=O)[C@@H](Cc2ccc(O)cc2)NC(=O)CNC(=O)[C@H](Cc2ccc3ccccc3c2)NC1=O` the IC50 was 126 nM.

From ChEMBL document CHEMBL2040720, “Potent CXCR4 antagonists containing amidine type Peptide bond isosteres” (ACS Med Chem Lett, 2011)
